Literature values in paper PMC11215778 (Journal of Medicinal Chemistry, 2024).

Tests used:
Details in all cases: cited from earlier work
ADRA1B = molecular target: ADRA1B
5-HT1B = molecular target: 5-HT1B
ADRA1D = molecular target: ADRA1D

COC(=O)[C@@H]1[C@H]2C[C@H]3c4[nH]c5ccccc5c4CCN3C[C@@H]2CC[C@@H]1O [Compound 1, Yohimbine, reference compound]
6.8: ADRA1B pKi (ADRA1B) | 5-HT1B pKi (5-HT1B) | ADRA1D pKi (ADRA1D)
